{"sequences": {"note": "Chains of the proteins cited; added tags and fusions are not shown. Residues count along the entry.", "UniProt P24046, 22-479": "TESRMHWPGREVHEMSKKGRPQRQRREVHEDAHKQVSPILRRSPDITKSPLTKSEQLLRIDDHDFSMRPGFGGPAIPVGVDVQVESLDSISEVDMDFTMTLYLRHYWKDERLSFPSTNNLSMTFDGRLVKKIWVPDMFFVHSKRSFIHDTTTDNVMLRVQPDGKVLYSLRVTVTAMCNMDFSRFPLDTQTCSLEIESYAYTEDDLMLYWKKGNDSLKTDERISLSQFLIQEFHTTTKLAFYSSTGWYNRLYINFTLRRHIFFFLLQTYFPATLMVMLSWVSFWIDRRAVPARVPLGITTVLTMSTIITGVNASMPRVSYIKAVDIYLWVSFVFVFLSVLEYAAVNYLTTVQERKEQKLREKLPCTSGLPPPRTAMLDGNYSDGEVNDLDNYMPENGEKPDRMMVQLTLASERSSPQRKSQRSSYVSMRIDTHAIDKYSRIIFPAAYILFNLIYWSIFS"}, "source": "patent US6632806B1", "about": "“Neurologically-active compounds” (The University of Sydney, priority 1997, dated 2003)", "biological_target": "human r1 receptors (GABAC receptors) (Homo sapiens, UniProt P24046)", "assay": "Two-electrode voltage clamp recording of human r1 GABAC receptors expressed in Xenopus oocytes", "note": "Several values for one entry are separate records, joined by “and”; a condition that tells them apart may be missing. Equal entries are not always repeated.", "data": [{"smiles": "CCCCP(=O)(O)CCCN", "note": "[CGP36742, (3-aminopropyl)-n-butylphosphinic acid]", "values": [{"measurement": "nH (Hill Coefficient)", "value": "3.0 ± 0.4"}, {"measurement": "Activation of the receptor by compound alone", "setting": "100 μM, FIG. 1", "value": "do not activate the receptor"}, {"measurement": "Effect on GABA response when co-applied with GABA (1 μM)", "setting": "100 μM, FIG. 1", "value": "the GABA response is blocked or reduced"}, {"measurement": "IC50", "setting": "IC50 (concentration that inhibits 50% of the response produced by 1 μM GABA), 1 μM GABA", "value": "62 µM and 62.5 µM"}]}]}
